Target: Adenosine receptor A3 (Homo sapiens, UniProt P0DMS8)
Experiment: Agonist activity at human recombinant adenosine A3 receptor expressed in CHO cells assessed as inhibition of forskolin-stimulated cAMP production treated 45 mins before forskolin challenge measured after 15 mins by radioimmunoassay relative to NECA
Format: functional, cell-based

The chains behind the UniProt entries cited, without tags or fusion partners.
UniProt P0DMS8, whole entry: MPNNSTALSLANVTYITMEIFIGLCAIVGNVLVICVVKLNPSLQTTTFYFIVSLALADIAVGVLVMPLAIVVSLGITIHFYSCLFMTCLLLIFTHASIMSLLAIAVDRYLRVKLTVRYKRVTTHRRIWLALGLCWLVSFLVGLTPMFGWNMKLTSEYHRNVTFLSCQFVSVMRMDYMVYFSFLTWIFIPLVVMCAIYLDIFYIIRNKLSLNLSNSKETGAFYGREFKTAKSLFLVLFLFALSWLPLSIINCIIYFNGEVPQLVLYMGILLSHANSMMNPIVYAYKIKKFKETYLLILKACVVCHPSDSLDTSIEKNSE

IC50: 1.09 nM
Compound: CCN1C(=C/C=C/C=C/C2=[N+](CCCCCC(=O)NCCNC(=O)CCC#Cc3nc(NCc4cccc(Cl)c4)c4ncn([C@H]5[C@H](O)[C@H](O)[C@@]6(C(=O)NC)C[C@H]56)c4n3)c3ccccc3C2(C)C)C(C)(C)c2cc(S(=O)(=O)[O-])ccc21

Reference: ChEMBL document CHEMBL1154768 (J Med Chem, 2009)
